pEC50: −log10 of the molar value. Where “and” joins values, the source holds several entries; their conditions need not be identical. Equal values may be shown once.
System: primary CLL cells
Assay: Activity screening, MTT viability, primary CLL cells
Type: cell-based
Conditions: three days, quantity not given, repeat runs (1st), (2nd)
Method: They were plated in 96-well plates at 100,000 cells/well. Titrated concentrations of the compound to be tested were added to the culture medium. The cells were incubated three days at 37° C., 5% CO2. Viability of the cells was assayed by standard MTT assay. Each drug concentration was done in duplicate.

SMILES | pEC50 (CLL cell, 72 h) | pEC50
CCc1cccc2c3c([nH]c12)C(CC)(CC(N)=O)OCC3 (stereo not drawn) [Compound 6, 2-(1,8-Diethyl-1,3,4,9-tetrahydropyrano[3,4-b]indol-1-yl)-acetamide] | 3.98 | 3.70 and 3.72 and 3.80
CCc1cccc2c3c([nH]c12)C(CC)(CC)OCC3 [Compound 5, 1,1,8-Triethyl-1,3,4,9-tetrahydropyrano[3,4-b]indole] | < 3.00 | 
